scFv variants of Ab-14 (light chain) against a SARS-CoV-2 spike peptide

Reference: Li et al. 2023, doi:10.1038/s41467-023-39022-2. File: FLAb, binding data.

The target is the same throughout: PDVDLGDISGINAS, from the HR2 region of SARS-CoV-2 spike.

Parent: Ab-14, a human scFv built as VH, three GGGGS repeats, VL. Only the CDRs of the light chain vary.
VH: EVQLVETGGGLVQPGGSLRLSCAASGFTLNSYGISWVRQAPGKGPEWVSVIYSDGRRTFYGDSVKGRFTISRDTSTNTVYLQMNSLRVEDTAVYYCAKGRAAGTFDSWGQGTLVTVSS
VL: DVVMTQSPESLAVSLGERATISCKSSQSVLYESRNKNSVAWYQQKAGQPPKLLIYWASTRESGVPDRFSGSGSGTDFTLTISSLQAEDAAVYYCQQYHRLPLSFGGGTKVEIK

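The parent was found by panning a naive human phage display library on the peptide. This is the validation round: designs drawn from the data on random variants, tested in the same kind of assay. Several design methods are mixed in this list. The scFvs were displayed on barcoded MATa yeast, the peptide on MATalpha yeast. Pairs that bind mate more often; barcode pairs of the diploids are counted by sequencing. Each replicate has its own calibration line, from reference interactions of the BCL2 family. Mating was done six times.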

The parent's light chain CDRs are KSSQSVLYESRNKNSVA, WASTRES, QQYHRLPLS; each variant's own CDRs replace them letter for letter.
This list holds designs with more than six substitutions.
Scale: log10 of Kd in nM, estimated from mating counts; low values are strong binders.
The mean shown is taken over the replicates in which the pair was detected.
"ND" marks a missing value. The strain was present, yet no cells mated with the target were sequenced in that replicate, which points to weak or no binding.
In the paper, a design with two or fewer of six values counts as a poor binder.
The range of this assay differs from that of the first round, and the authors advise against merging the two.
The parent sequence was in this pool as ten entries: three were never detected, three once, and four in most replicates, with averages from 0.34 to 2.37.
As a blank, each scFv also met three strains without target: over all light chain designs, 4% of these pairings were detected, typically at 2.64 and seldom below 1.59.

The variant KIGATLNTLYEKKNNVA / DLVVREN / QQYHRLPLS gave 0.75, 0.32, 0.13, 0.26, 0.51, 0.55 (mean 0.42). The variant KLQPSMLYESRNDNSVA / DASMRES / QQYHRLPLF showed 0.20, 0.13, -0.01, -0.20, -0.17, 0.23 (mean 0.03). The variant KLSQMVGYESRNKSRVA / DNSTRES / QQYDRLPLS gave ND, ND, ND, 1.78, 1.70, ND (mean 1.74). The variant KLSIFHQVESINKSNVA / EMVTREN / QQYDRLPLS showed ND, 1.33, ND, ND, ND, 2.75 (mean 2.04). The variant MLSDTVMQGLYSRNSVA / QESTRAE / QQYHHLPLS showed 0.79, 0.49, 0.59, 0.11, 0.32, 0.40 (mean 0.45). The variant SLDSYVGYDTQNKKNIA / EETRVDR / QQYAHLPLM showed 0.95, 0.49, 2.05, 0.79, 1.42, 0.83 (mean 1.09). For HISMSMNWLSRNKNSIA / EESTRED / QQYDRLPLS, the assay gave ND, 2.40, 1.55, 2.63, 1.47, 2.77 (mean 2.16).

The variant QLDWYNTYATASASNVA / DVAQRAN / QQYMRLPLM gave 0.10, 0.00, 0.06, -0.08, 0.05, 0.16 (mean 0.05). With SITQLVAYGQRNKNSVA / QMSTRES / QQYDRLPLS the result was 0.94, 1.19, 1.08, 0.96, 0.99, 1.25 (mean 1.07). The variant KIGMTLNQLYQKNNNVA / DLVERED / QQYHRLPLS showed 0.85, 0.46, 0.55, 0.64, 0.50, 0.74 (mean 0.62). For NISIKEPGNWMMMDSVA / HSSLRAE / QQYWRLPLM, the assay gave 0.75, 0.31, 0.48, 0.28, 0.42, 0.55 (mean 0.47). For KLGEKNRMNGMANKNVA / ASNTRVD / QEYHRLPLI, the assay gave 0.38, 1.66, 0.44, 0.62, 1.24, 1.19 (mean 0.92). With HVSEMIFAQMKMRNSVA / ENSTREA / QQYDRLPLS the result was ND, ND, 2.69, ND, ND, 2.03 (mean 2.36). The variant KLENSNLYESRNDNSVA / NASTRYS / QQYHRLPLS gave 0.54, 0.37, 0.23, 0.25, 0.55, 0.27 (mean 0.37).

The variant KLAMYLSMWADTYHGVA / DANHKAS / QQYNRLPLS showed 0.63, 0.91, 0.99, 0.58, 0.83, 0.74 (mean 0.78). With RLTEHYYMRADANHAVA / DASTRND / QQYHRLPLW the result was 0.65, 0.71, 0.83, 0.56, 0.41, 0.62 (mean 0.63). The variant HVDQVKYDQKTAQNNIA / SGAERVW / QQYSRLPFS gave -0.26, -0.33, -0.29, -0.18, -0.41, -0.13 (mean -0.27). The variant KSSTSQEYEDRNFNSVA / HASTREE / QQYHRLPLS gave 0.19, -0.17, 0.11, 0.02, -0.45, 0.00 (mean -0.05). The variant VYNLPFEGYQPKKYSIA / NAEIREY / QQYSRLPIL showed 1.69, 1.11, 2.51, 1.87, 0.85, 1.96 (mean 1.67). The variant TIGQTLMSGVMNRSNVA / EVSQRLN / QQYDRLPLL showed 0.67, 0.36, 0.57, 0.63, 0.53, 1.09 (mean 0.64). With MVYGSMDQAMRTHNSIA / DNQTRES / QQYDRLPLS the result was ND, 3.25, ND, 2.59, 1.96, 4.66 (mean 3.11).

The variant KSFQSELDENRNDNSVA / SASTRLS / QQYHRLPLS gave 0.18, -0.02, 0.66, 0.46, 0.19, 0.23 (mean 0.28). For KISQMQRVGATHSNSIA / EEVTRAK / QQYHRLPLA, the assay gave 1.27, 1.03, 1.17, 0.84, 0.97, 1.10 (mean 1.06). The variant TLMQVGGYEMNAHDSIA / DLRTREN / QQYHRLPLS showed 0.94, 1.52, 1.10, 1.30, 1.37, 0.96 (mean 1.20). The variant KLEQGDLMESRNKNSVA / HASERES / QQYHRLPLS gave 0.02, -0.40, -0.20, -0.36, -0.52, -0.36 (mean -0.30). The variant ALRGVGYTEQVKHSAIA / DGEHLNN / QQYSMLPLS showed ND, 0.62, 0.41, ND, 1.55, ND (mean 0.86). For QLYAVNDLTSKNSQNVA / EQTTREN / QQYHRLPLS, the assay gave 1.22, 0.53, 0.44, 0.24, 0.76, 0.65 (mean 0.64). The variant KISQDYEYESRNKNSVA / SASTRMV / QQYHRLPLS gave 0.10, 0.25, 0.02, -0.08, -0.24, -0.01 (mean 0.01).

The variant KCSQSVKYEDRNWNNVA / NASTRES / QDYHRLPLS showed -0.13, 0.09, -0.11, -0.11, -0.09, 0.17 (mean -0.03). With MLSQMWGVGSKAKNSVA / QANMRFN / QQYDRLPLI the result was 0.86, 0.77, 0.74, 0.78, 0.99, 1.02 (mean 0.86). For KIGMTLNQLMHQKQNVA / DLVEREN / QQYFRLPLS, the assay gave 0.31, 0.19, 0.18, -0.08, 0.00, 0.42 (mean 0.17). With KLYQSVGYESRNKSRVA / DNSTRES / QQYDRLPLS the result was ND, ND, 2.29, 3.22, ND, ND (mean 2.75). For KYEYSELELSRNSNSVA / NASTREE / QQYHRLPLS, the assay gave -0.08, 0.01, -0.28, -0.28, -0.21, 0.08 (mean -0.12). The variant KSSGSVMGEDMNKNSVA / HASKRES / QQYHRLPLS gave 0.46, 0.42, 0.38, 0.28, 0.58, 0.64 (mean 0.46). The variant MVSQLMLWGLHAKNSIA / EAQTRVN / QQYDRLPLF showed 1.00, 1.24, ND, ND, ND, 1.30 (mean 1.18).

The variant HIGLSTMLEETVRNSVA / NNSTREK / QQYDRLPLS showed 1.33, 0.57, 1.12, 1.00, 0.93, 0.94 (mean 0.98). The variant MVTQMAMTGMKNKRSVA / NAEMREN / QQYHRLPLI showed 0.99, 0.40, 0.00, 0.31, 0.17, 0.52 (mean 0.40). The variant KVSQSMEYQSRNKNNVA / NASQREQ / QSYHRLPLS showed -0.12, -0.32, -0.61, -0.43, -0.35, -0.22 (mean -0.34). The variant QIGMLLNFESKVGNNVA / QMETRVN / QQYHHLPLS gave 1.48, 1.54, 0.90, ND, 1.52, 1.96 (mean 1.48). The variant QLGMHLKELSKVTNNVA / EMTTRLN / QQYFRLPLA showed 0.26, 0.29, 0.41, 0.08, 0.12, 0.32 (mean 0.25). The variant ELFFNDFQLAIQSNSIA / HASLREV / QQYAHLPLV showed ND, 1.98, 1.84, ND, 1.47, 1.40 (mean 1.67). With TISQSAFMESHNKNSVA / DLNVRGS / QQYDRLPLS the result was 0.31, 0.42, 0.13, -0.01, 0.30, 0.40 (mean 0.26).

For KMSQSVEQLDRNWNNVA / YASQREM / QQYHRLPLS, the assay gave 0.75, 0.22, -0.13, -0.04, 0.47, 0.31 (mean 0.26). With KISWNFLIESKNLNSVA / EMTTREY / QDYDRLPLS the result was ND, ND, ND, ND, ND, ND. With HIELGTWGVQKFDSSVA / HASQRQE / QQYAQLPLT the result was ND, ND, ND, ND, ND, ND. With ALQQKGATLHEARQNIA / HSDTRAA / QQYSTLPLA the result was 0.20, 0.00, 0.12, -0.08, 0.05, -0.01 (mean 0.05). The variant KLYQSMLYEQRNKNSVA / NASLRES / QCYHRLPLS showed 0.96, 0.81, 0.90, 0.68, 1.05, 1.10 (mean 0.92).

The closing 4 entries, repeated:

CDR-L1,CDR-L2,CDR-L3,"replicates, log10 nM","mean, log10 nM"
KISWNFLIESKNLNSVA,EMTTREY,QDYDRLPLS,"ND, ND, ND, ND, ND, ND",ND
HIELGTWGVQKFDSSVA,HASQRQE,QQYAQLPLT,"ND, ND, ND, ND, ND, ND",ND
ALQQKGATLHEARQNIA,HSDTRAA,QQYSTLPLA,"0.20, 0.00, 0.12, -0.08, 0.05, -0.01",0.05
KLYQSMLYEQRNKNSVA,NASLRES,QCYHRLPLS,"0.96, 0.81, 0.90, 0.68, 1.05, 1.10",0.92